Reference: ChEMBL document CHEMBL3046181, “Tricolorin A as a natural herbicide” (Molecules, 2013)

Key:
Format in all cases: functional, organism-based
Trifolium alexandrinum [1] = experiment: Herbicidal activity against Trifolium alexandrinum assessed as inhibition of seed germination after 5 days
Physalis ixocarpa [2] = experiment: Herbicidal activity against Physalis ixocarpa assessed as inhibition of seed germination after 5 days
Triticum aestivum [3] = experiment: Herbicidal activity against Triticum vulgare var. Salamanca (wheat) assessed as inhibition of shoot elongation after 4 days
Lolium multiflorum [4] = experiment: Herbicidal activity against Lolium multiflorum (Italian ryegrass) assessed as inhibition of shoot elongation after 5 days
Trifolium alexandrinum [5] = experiment: Herbicidal activity against Trifolium alexandrinum assessed as inhibition of shoot elongation after 5 days
Physalis ixocarpa [6] = experiment: Herbicidal activity against Physalis ixocarpa assessed as inhibition of shoot elongation after 5 days
Triticum aestivum [7] = experiment: Herbicidal activity against Triticum vulgare var. Salamanca (wheat) assessed as inhibition of root elongation after 4 days
Lolium multiflorum [8] = experiment: Herbicidal activity against Lolium multiflorum (Italian ryegrass) assessed as inhibition of root elongation after 5 days
Lolium multiflorum [9] = experiment: Herbicidal activity against Lolium multiflorum (Italian ryegrass) assessed as inhibition of seed germination after 5 days
Trifolium alexandrinum [10] = experiment: Herbicidal activity against Trifolium alexandrinum assessed as inhibition of root elongation after 5 days
Physalis ixocarpa [11] = experiment: Herbicidal activity against Physalis ixocarpa assessed as inhibition of root elongation after 5 days
Triticum aestivum [12] = experiment: Herbicidal activity against Triticum vulgare var. Salamanca (wheat) assessed as inhibition of seed germination after 4 days

Measured: inhibition

CCCCC[C@H]1CCCCCCCCCC(=O)O[C@H]2[C@H](O)[C@@H](CO)O[C@@H](O[C@H]3[C@H](O1)O[C@H](C)[C@H](O)[C@@H]3O)[C@@H]2O[C@@H]1O[C@@H](C)[C@H](OC(=O)[C@@H](C)CC)[C@@H](O[C@@H]2O[C@@H](C)[C@H](O)[C@@H](O)[C@H]2O)[C@H]1OC(=O)[C@@H](C)CC [TRICOLORIN A]
active: Trifolium alexandrinum [1] Dose-dependent effect | Physalis ixocarpa [2] Dose-dependent effect | Triticum aestivum [3] Dose-dependent effect | Lolium multiflorum [4] Dose-dependent effect | Trifolium alexandrinum [5] Dose-dependent effect | Physalis ixocarpa [6] Dose-dependent effect | Triticum aestivum [7] Dose-dependent effect | Lolium multiflorum [8] Dose-dependent effect | Lolium multiflorum [9] Dose-dependent effect | Trifolium alexandrinum [10] Dose-dependent effect | Physalis ixocarpa [11] Dose-dependent effect | Triticum aestivum [12] Dose-dependent effect
